Measurements from patent US7375074B2, “Body weight gain inhibitor” (priority 2001, dated 2008).

Protein sequences, listed by entry. Tags and fused reporters are not part of them. Lines headed by an entry give the natural chain unless they say otherwise; changes in a name come on top.
UniProt P48146: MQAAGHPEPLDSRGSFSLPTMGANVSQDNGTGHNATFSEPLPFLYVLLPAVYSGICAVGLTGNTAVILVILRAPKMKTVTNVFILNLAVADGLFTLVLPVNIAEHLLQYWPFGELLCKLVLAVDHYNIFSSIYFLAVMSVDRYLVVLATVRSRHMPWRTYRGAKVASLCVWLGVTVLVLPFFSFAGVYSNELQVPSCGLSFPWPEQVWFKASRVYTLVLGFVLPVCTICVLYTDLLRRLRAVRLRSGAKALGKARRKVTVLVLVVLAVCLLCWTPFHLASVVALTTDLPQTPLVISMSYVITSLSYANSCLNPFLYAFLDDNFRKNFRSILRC

Legend:
[1] = biological target: T1, TGR26 (Rattus norvegicus, UniProt Q56UD9); experiment: Promoting activity for GTPγS binding, membrane fraction of TGR26 expressing CHO cells; format: biochemical
T1 construct: treated with restriction enzymes ClaI and SpeI, and the insert encoding TGR26 was excised; expressed in transfected cells; host or cells: CHO dhfr- cells, plasmid pAK-rGPR7; membrane fraction
T1 sequence (Q56UD9 1-329): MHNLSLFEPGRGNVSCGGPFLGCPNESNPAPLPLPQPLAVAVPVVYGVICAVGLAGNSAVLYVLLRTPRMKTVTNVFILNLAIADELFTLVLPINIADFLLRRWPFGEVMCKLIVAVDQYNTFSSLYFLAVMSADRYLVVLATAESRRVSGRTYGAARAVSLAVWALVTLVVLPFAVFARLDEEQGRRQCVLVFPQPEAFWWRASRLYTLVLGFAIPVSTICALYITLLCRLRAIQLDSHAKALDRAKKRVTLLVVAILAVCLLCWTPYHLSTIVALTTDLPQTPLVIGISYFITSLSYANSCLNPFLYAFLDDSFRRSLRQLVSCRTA
Protocol: Promoting activity for [^35S]-guanosine 5′-(γ-thio) triphosphate (GTPγS) binding to a membrane fraction of TGR26 expressing cells was assayed in accordance with the following method.
To 1×10^8 of TGR26 expressing CHO cells, 10 ml of homogenating buffer (10 mM NaHCO3, 5 mM EDTA, 0.5 mM PMSF (phenylmethylsulfonyl fluoride), 1 μg/ml Pepstatin, 4 μg/ml E-64, 20 μg/ml Leupeptin) was added, and the cells were disrupted using Polytron (12,000 rpm, 1 minute). Supernatant was obtained from the disrupted cell suspension by centrifugation (1,000 g, 15 minutes). Further, the supernatant was ultracentrifuged (Beckman Type 30 rotor, 30,000 rpm, 1 hour), and precipitate obtained was kept as a membrane fraction of TGR26 expressing CHO cells.
The membrane fraction of TGR26 expressing CHO cells was diluted with membrane dilution buffer (50 mM Tris HCl buffer (pH7.4), 5 mM MgCl2, 150 mM NaCl, 1 μM GDP, 0.1% BSA) to prepare a cell membrane fraction solution for assay at 30 μg/ml of protein concentration. To 200 μl of membrane fraction solution for assay, 2 μl of 50 nM [^35S]-guanosine 5′-(γ-thio) triphosphate (NEN) and 2 μl of sample/DMSO solution having an appropriate concentration were added. Then the mixture was incubated at 25° C. for one hour. […] Finally, a radioactivity on the filter was determined by liquid scintillation counter. […]

[2] = biological target: T2, GPR7 (Homo sapiens, UniProt P48145); experiment: Inhibiting activity of intracellular cAMP production, human GPR7 expressing CHO cells; format: cell-based; parameters: expressed in transfected cells; host or cells: CHO dhfr- cells, plasmid pAKKO-Human GPR7; membrane fraction; details: forskolin
T2 sequence (P48145 1-328): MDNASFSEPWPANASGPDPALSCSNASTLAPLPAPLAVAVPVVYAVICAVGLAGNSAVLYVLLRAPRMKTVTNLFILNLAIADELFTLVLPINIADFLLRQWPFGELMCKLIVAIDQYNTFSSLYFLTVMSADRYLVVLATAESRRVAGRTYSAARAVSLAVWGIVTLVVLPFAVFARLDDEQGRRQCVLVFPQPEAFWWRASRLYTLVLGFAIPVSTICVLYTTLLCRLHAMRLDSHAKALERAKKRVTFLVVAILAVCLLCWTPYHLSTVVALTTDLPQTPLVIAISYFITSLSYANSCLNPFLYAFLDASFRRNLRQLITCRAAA
Protocol: The human GPR7 expressing CHO cells, which are prepared in Reference Example 78 and selected as described in Reference Example 79, were seeded on 24-well plate at 5×10^4 cells/well and cultivated for 48 hours. The cells were washed with MEMα buffer (pH7.4) containing 0.2 mM 3-isobutyl-methylxanthine, 0.05% BSA (bovine serum albumine) and 20 mM HEPES [hereafter, MEMα buffer (pH7.4) containing 0.2 mM 3-isobutyl-methylxanthine, 0.05% BSA (bovine serum albumine) and 20 mM HEPES may be referred to as reaction buffer]. Then, 0.5 ml of the reaction buffer was added to the cells and the suspension was incubated for 30 minutes in the incubator. After removal of the reaction buffer and newly adding 0.25 ml of the reaction buffer to the cells, an appropriate concentration of sample in DMSO solution and 0.25 ml of the reaction buffer containing 2 μM forskolin were added to the cells and the mixture was reacted at 37° C. for 30 minutes. For termination of the reaction, 100 μl of 20% perchloric acid was added. […] The cAMP level in the extract was measured using the cAMP EIA Kit (Amersham Pharmacia Biotech).
The hGPR8L(1-23) or the hGPR8L(1-30) was administered at various concentrations to the human GPR7 expressing CHO cells by the method described in Reference Example 80, and an inhibiting activity of intracellular cAMP production was measured. […]

[3] = biological target: GPR8 (Homo sapiens, UniProt P48146); experiment: Promoting activity to GTPγS binding, membrane fraction of GPR8 expressing CHO cells; format: biochemical; parameters: expressed in transfected cells; host or cells: CHO dhfr- cells, plasmid pAKKO-GPR8, mainly clone #17; details: various concentrations

SMILES: CSCC[C@H](NC(=O)[C@H](CC(C)C)NC(=O)[C@H](CC(C)C)NC(=O)CNC(=O)[C@H](C)NC(=O)[C@H](C)NC(=O)[C@H](CCCNC(=N)N)NC(=O)CNC(=O)[C@@H](NC(=O)[C@@H](NC(=O)[C@H](Cc1c[nH]cn1)NC(=O)[C@H](Cc1ccc(O)cc1)NC(=O)[C@H](CCCNC(=N)N)NC(=O)[C@@H]1CCCN1C(=O)[C@H](CO)NC(=O)[C@H](C)NC(=O)[C@@H](NC(=O)[C@H](Cc1c[nH]cn1)NC(=O)[C@H](CCCCN)NC(=O)[C@H](Cc1ccc(O)cc1)NC(=O)[C@@H](N)Cc1c[nH]c2ccccc12)C(C)C)[C@@H](C)O)C(C)C)C(=O)NCC(=O)N[C@@H](CC(C)C)C(=O)O [hGPR8L(1-23)]
- promoting activity of GTPγS binding (in words) [1]: apparently promoted GTPγS binding
- inhibiting activity of intracellular cAMP production (in words) [2]: apparently inhibited intracellular cAMP production
- promoting activity to GTPγS binding (in words) [3]: apparently promoted to GTPγS binding

SMILES: CSCC[C@H](NC(=O)[C@H](CC(C)C)NC(=O)[C@H](CC(C)C)NC(=O)CNC(=O)[C@H](C)NC(=O)[C@H](C)NC(=O)[C@H](CCCNC(=N)N)NC(=O)CNC(=O)[C@@H](NC(=O)[C@@H](NC(=O)[C@H](Cc1c[nH]cn1)NC(=O)[C@H](Cc1ccc(O)cc1)NC(=O)[C@H](CCCNC(=N)N)NC(=O)[C@@H]1CCCN1C(=O)[C@H](CO)NC(=O)[C@H](C)NC(=O)[C@@H](NC(=O)[C@H](Cc1c[nH]cn1)NC(=O)[C@H](CCCCN)NC(=O)[C@H](Cc1ccc(O)cc1)NC(=O)[C@@H](N)Cc1c[nH]c2ccccc12)C(C)C)[C@@H](C)O)C(C)C)C(=O)NCC(=O)N[C@@H](CC(C)C)C(=O)N[C@@H](CCCNC(=N)N)C(=O)N[C@@H](CCCNC(=N)N)C(=O)N[C@@H](CO)C(=O)N1CCC[C@H]1C(=O)N[C@@H](Cc1ccc(O)cc1)C(=O)N[C@@H](CC(C)C)C(=O)N[C@@H](Cc1c[nH]c2ccccc12)C(=O)O [hGPR8L(1-30)]
- promoting activity of GTPγS binding (in words) [1]: apparently promoted GTPγS binding
- inhibiting activity of intracellular cAMP production (in words) [2]: apparently inhibited intracellular cAMP production
- promoting activity to GTPγS binding (in words) [3]: apparently promoted to GTPγS binding
